Where a chain is given by its changes, count along the chain named. Activity calls are given as the source filed them. No cut-off for these calls is given here.
Key:
[1] = test system: T1, Lysosomal acid glucosylceramidase (Homo sapiens), P04062 [N409S]; assay: Inhibition of glucocerebrosidase activity in human N370S mutant cells at 40 uM by pulse-chase assay; type: cell-based
T1 sequence (whole entry): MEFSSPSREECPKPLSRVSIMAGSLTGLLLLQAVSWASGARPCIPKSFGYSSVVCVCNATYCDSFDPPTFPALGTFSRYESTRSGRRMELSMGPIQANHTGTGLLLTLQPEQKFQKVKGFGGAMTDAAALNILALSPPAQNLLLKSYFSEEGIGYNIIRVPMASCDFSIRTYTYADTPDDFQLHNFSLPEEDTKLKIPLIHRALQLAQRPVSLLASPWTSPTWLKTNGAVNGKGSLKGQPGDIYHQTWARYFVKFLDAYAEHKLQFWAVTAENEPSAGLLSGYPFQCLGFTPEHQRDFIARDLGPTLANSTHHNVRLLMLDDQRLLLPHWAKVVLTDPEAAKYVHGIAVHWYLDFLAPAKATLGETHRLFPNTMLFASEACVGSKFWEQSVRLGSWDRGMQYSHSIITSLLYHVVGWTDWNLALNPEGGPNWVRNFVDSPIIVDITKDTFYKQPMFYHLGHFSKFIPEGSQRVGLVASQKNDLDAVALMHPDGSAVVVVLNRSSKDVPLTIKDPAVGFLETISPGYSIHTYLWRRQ

[2] = target: T2, Lysosomal acid glucosylceramidase (Homo sapiens) (UniProt P04062); assay: Inhibition of glucocerebrosidase activity in human wild-type fibroblasts at 40 uM by pulse-chase assay
T2 sequence (whole entry): T1 sequence (whole entry) with S409N

CCc1nnc(NC(=O)c2ccc(NS(=O)(=O)c3ccccc3)cc2)s1 was tested, and the Activity [1] was “Active” and the Activity [2] was “Active”.
